# In PubChem BioAssay AID434979 (Johns Hopkins Ion Channel Center, 2010):
# The entries are a selection whose mix differs from that of the whole data set. Activity calls are given as the source filed them.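 Rule for the calls: active = signal rise over 3 SD above mean of control wells given weak agonist, in both repeats and first screen; inactive = the rest.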
# Test system: TRPC4 (mouse), co-expressed with 5HT1a in HEK293
# Test: calcium flux potentiators in TRPC4/5HT1a cells, confirmation, counter-screen for TRPC4 potentiator project, cell-based, second counter screen, HEK293 TRPC4/5HT1a, Fluo-4 (AID 434979)
# Details: Fluo-4 calcium flux, at 10 µM, serotonin added at its EC20 dose; stronger effect = higher value
row,Compound,potentiation
1,CN(C)CCOC(=O)C(O)(c1ccccc1)C1CCCC1 (configuration not stated),inactive
2,CCN(CC)CCCOC(=O)C(O)(c1ccccc1)c1ccccc1,active: 20.3%
